Measurements taken from patent US8012481B2, “Composition and method for inducing or restoring locomotor functions in an animal” (Universite Laval, priority 2004, dated 2011).

System: paraplegic mice (lumbar spinal cord circuitry for hindlimb locomotion)
Test: Hindlimb movement generation (LM/NLM) on a motor-driven treadmill in complete spinal cord transected mice
Details: mouse, in vivo

Question: For CCCN1CCC[C@@H]2Cc3n[nH]cc3C[C@H]21 [Quinpirole], which “induction of LM” value is on record?
Answer: The value was “did not induce LM”.
